From paper PMC6656732

Molecular target: Myosin-VI (myo6), native full-length construct, heavy chain co-expressed with human calmodulin (human) (UniProt P0DP23)

- gliding velocity of Alexa 488-labelled actin filaments translocated by myo6 bound to a DOPC:DOPE-Cy5 bilayer (motility assay, TIRF microscopy, 2 mM ATP, 22 °C, n = 153 filaments): 365 nm/s
Substance: Alexa488-phalloidin labelled F-actin (from UniProt P68135 1-377) (natural protein)
